Among the data in PMC6940354, “Comparative Assessment of the New PDE7 Inhibitor – GRMS-55 and Lisofylline in Animal Models of Immune-Related Disorders: A PK/PD Modeling Approach” (Pharmaceutical Research, 2020) are IC50 values, retold here.

The chains behind the UniProt entries cited, without tags or fusion partners. Where a name states a change or a piece, a line headed by the entry shows the natural chain unless it says otherwise.
UniProt Q9Y233: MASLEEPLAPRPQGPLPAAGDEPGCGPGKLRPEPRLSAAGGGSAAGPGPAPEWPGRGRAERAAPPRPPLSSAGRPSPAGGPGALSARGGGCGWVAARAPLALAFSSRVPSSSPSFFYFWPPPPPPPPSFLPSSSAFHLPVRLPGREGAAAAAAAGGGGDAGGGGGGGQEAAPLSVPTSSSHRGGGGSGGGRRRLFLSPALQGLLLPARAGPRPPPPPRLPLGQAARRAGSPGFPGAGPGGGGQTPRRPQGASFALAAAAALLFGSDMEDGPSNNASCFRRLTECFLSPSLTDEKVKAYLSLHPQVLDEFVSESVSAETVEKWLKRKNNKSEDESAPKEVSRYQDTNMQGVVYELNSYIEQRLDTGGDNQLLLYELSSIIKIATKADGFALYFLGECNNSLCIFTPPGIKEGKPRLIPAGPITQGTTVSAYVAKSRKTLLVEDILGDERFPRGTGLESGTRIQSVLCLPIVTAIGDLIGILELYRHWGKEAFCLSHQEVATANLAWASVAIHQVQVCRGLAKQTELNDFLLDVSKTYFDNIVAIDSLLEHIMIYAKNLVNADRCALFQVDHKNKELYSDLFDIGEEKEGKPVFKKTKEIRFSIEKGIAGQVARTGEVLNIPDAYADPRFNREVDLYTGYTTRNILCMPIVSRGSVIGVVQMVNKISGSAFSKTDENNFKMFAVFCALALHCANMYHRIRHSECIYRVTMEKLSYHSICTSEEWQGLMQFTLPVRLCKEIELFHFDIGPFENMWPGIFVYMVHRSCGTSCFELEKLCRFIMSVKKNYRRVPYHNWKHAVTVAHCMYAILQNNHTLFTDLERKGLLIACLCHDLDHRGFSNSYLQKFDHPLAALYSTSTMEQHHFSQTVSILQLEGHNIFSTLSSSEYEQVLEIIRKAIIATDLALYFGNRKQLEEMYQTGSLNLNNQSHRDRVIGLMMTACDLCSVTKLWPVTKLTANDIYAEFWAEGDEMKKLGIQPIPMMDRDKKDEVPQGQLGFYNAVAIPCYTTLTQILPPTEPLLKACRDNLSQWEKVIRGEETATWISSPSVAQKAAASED

The structures appear in SMILES notation. Several values for one entry are separate records, joined by “and”; a condition that tells them apart may be missing. Equal entries are not always repeated.

In general, IC50 refers to the concentration that inhibits the measured activity by half.

For this assay, the target named is hrPDE10A (Homo sapiens, UniProt Q9Y233). As to the kind of experiment: PDE-Glo Phosphodiesterase Assay, hrPDE10A. Particulars: IC50 PDE10A, Estimate (CV%), cAMP substrate.

In the case of `COc1ccc(Cc2nccc3cc(OC)c(OC)cc23)cc1OC` [Papaverine, papaverine], the concentration for half-maximal inhibition (IC50) is < 1000 nM and 66 nM.
